Assay results published in PMC7288052 (Molecules, 2020).

Chains of the proteins cited; added tags and fusions are not shown.
UniProt P33535, whole entry: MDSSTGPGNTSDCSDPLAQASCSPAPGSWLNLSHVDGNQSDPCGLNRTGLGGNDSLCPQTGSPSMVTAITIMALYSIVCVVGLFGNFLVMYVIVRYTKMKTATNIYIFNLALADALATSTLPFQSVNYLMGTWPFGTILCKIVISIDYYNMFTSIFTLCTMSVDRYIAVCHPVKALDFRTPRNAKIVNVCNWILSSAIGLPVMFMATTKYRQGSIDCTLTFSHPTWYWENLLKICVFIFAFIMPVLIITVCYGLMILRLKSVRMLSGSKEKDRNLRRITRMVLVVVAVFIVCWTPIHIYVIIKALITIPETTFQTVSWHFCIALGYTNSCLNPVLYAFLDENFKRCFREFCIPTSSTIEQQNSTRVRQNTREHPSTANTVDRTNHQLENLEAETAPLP

Molecular target: T1, μ-opioid receptor (μOR) (Rattus norvegicus, UniProt P33535)
T1 construct: from tissue; host or cells: rat brain homogenate (membrane fractions)
Experiment: competitive radioligand displacement assay, μOR, [3H]DAMGO, rat brain homogenate membranes
Format: binding
Description: The determinations were performed by a competitive radioligand displacement assay with selective radioligands.
Membrane fractions of rat brain Homogenate were incubated at 25 °C for 60 mins in the presence of radioligands (0.5 nM) specific for each receptor (μOR: [^3H]DAMGO and δOR: [^3H]DELT II, obtained as a generous gift from Prof. Géza Tóth) and the increasing concentrations of the tested compounds (10^−11 up to 10^−5 M, each concentration in duplicate). For measuring non-specific binding, 10 μM naloxone was used as the competitor. The assay buffer contained 50mM Tris-HCl (pH 7.4), bovine serum albumin (0.1 mg/mL), bacitracin (30 μg/mL), bestatin (30 μM), captopril (10 μM), and phenylmethylsulfonyl fluoride (0.1 mM) in the total reaction volume of 1 mL. After the incubation, the binding reactions were terminated by rapid filtration with M-24 Cell Harvester (Brandel/USA) through GF/B Whatman glass fibre strips. The filters were pre-soaked with 0.5% PEI before harvesting in order to minimize non-specific binding. Filter discs were placed separately in 24-well plates and immersed with the Optiphase Supermix scintillation cocktail (Perkin Elmer, Waltham, MA, USA). Radioactivity was measured using a MicroBeta LS Trilux scintillation counter (PerkinElmer, Waltham, MA, USA).

SMILES: C[C@@H](NC(=O)[C@@H](N)Cc1ccc(O)cc1)C(=O)N[C@@H](Cc1ccccc1)C(=O)N[C@@H](Cc1ccccc1)C(N)=O [compound 1, H-Tyr-D-Ala-Phe-Phe-NH2, reference compound]
- IC50: 5.1 ± 3.5 nM
